This passage reports IC50 results from patent US12662465B2, “EGFR inhibitors” (Blueprint Medicines Corporation, priority 2021, dated 2026).

The chains behind the UniProt entries cited, without tags or fusion partners. Where a name states a change or a piece, a line headed by the entry shows the natural chain unless it says otherwise. Residues count along the entry.
UniProt P00533, 25-1210 L858R limits assumed: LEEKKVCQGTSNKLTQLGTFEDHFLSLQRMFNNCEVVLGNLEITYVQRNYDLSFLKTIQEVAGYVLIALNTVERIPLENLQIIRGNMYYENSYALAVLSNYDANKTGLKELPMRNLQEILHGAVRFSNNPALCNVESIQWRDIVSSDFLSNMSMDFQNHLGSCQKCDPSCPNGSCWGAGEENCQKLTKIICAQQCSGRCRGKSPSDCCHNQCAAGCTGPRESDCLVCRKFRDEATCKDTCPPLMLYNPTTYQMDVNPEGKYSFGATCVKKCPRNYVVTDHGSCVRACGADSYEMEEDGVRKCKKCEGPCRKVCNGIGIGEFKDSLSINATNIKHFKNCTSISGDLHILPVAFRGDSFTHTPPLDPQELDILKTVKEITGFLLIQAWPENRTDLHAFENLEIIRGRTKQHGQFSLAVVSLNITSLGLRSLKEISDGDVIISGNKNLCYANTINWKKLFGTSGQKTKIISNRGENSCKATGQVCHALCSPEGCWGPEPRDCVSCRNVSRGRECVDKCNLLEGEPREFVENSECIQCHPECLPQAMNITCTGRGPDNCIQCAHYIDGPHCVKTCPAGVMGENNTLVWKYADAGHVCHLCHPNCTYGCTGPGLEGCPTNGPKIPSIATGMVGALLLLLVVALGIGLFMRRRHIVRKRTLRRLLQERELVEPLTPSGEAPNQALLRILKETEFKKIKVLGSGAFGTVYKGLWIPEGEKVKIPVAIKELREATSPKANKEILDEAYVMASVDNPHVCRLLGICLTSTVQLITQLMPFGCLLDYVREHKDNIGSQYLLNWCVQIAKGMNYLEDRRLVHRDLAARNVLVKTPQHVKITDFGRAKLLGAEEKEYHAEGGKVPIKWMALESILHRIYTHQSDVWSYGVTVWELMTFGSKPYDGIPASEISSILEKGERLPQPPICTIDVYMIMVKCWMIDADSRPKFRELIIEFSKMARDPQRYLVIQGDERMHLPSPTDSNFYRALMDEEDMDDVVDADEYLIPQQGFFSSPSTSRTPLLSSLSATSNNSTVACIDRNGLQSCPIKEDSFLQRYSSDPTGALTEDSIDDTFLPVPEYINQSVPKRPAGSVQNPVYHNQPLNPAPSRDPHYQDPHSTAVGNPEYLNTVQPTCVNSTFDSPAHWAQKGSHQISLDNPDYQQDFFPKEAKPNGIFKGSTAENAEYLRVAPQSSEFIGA

What is called IC50 is the midpoint of a concentration-inhibition curve.

Bounds are passed on as bounds.

Assay [1] concerns the target intracellular phosphorylation of EGFR (Tyr1068) in PC-9 cells (Ex19Del) (Homo sapiens, UniProt P00533, DEL746-750). The assay can be described thus: PC-9 pEGFR AlphaLISA assay. The format is cell-based. The settings on record: read-out: Ext pEGFR_PC-9 Ex19Del IC50, 4 hours compound incubation. (In general: Alpha assays give light when donor and acceptor beads are brought close together.)

The next assay has as its target EGFR L858R (Homo sapiens, UniProt P00533, L858R). In words: Biochemical EGFR inhibition assay (Caliper mobility shift), EGFR L858R. The settings on record: read-out: Enz EGFR_L858R IC50; 1.0 mM ATP or ATP Km; room temperature (25° C.).
In a further assay the target is EGFR (d746-750) (Homo sapiens, UniProt P00533, DEL746-750). In words: Biochemical EGFR inhibition assay (Caliper mobility shift), EGFR (d746-750). The settings on record: read-out: Enz EGFR_Exon19-del746-750 IC50; 1.0 mM ATP or ATP Km; room temperature (25° C.).

Regarding `CC(Oc1cc(-c2cnn(C)c2)cc2ncnc(Nc3ccc4ncccc4c3F)c12)C(=O)N1CCOCC1` (single isomer, unassigned), the IC50 (in assay [1]; on EGFR L858R; at EGFR (d746-750)) was under 10 nM throughout.

As for `CN1CC[C@@H](Oc2cc(-c3cnn(C)c3)cc3ncnc(Nc4ccc5ncccc5c4F)c23)[C@H](F)C1` (relative stereo), the half-maximal inhibitory concentration (IC50) on EGFR L858R and at EGFR (d746-750) was under 10 nM each time.

On to `C[C@@H](O)[C@@H](C)Oc1cc(-c2cnn(C)c2)cc2ncnc(Nc3ccc4ncccc4c3F)c12` (relative stereo), for which the concentration for half-maximal inhibition (IC50) (in assay [1]; on EGFR L858R; on EGFR (d746-750)) was under 10 nM each time.

`CCC(Oc1cc(-c2cnn(C)c2)cc2ncnc(Nc3ccc4ncccc4c3F)c12)C1COC1` (single isomer, unassigned): the IC50 (in assay [1]; on EGFR L858R; on EGFR (d746-750)) was under 10 nM throughout.

Turning to `CC(Oc1cc(-c2cnn(C)c2)cc2ncnc(Nc3ccc4ncccc4c3F)c12)C(=O)N(C)C` (single isomer, unassigned), the IC50 (in assay [1]; at EGFR L858R; on EGFR (d746-750)) was under 10 nM each time.

Turning to `CN(C)[C@H]1CC[C@@H]1Oc1cc(-c2cnn(C)c2)cc2ncnc(Nc3ccc4ncccc4c3F)c12` (relative stereo), the IC50 (in assay [1]; at EGFR L858R; on EGFR (d746-750)) was under 10 nM each time.

Regarding `Cn1cc(-c2cc(O[C@@H]3CC[C@@H]3O)c3c(Nc4ccc5ncccc5c4F)ncnc3c2)cn1` (relative stereo), the half-inhibitory concentration (IC50) (in assay [1]; at EGFR L858R; on EGFR (d746-750)) was under 10 nM each time.

On to `C[C@H](O)[C@@H](C)Oc1cc(-c2cnn(C)c2)cc2ncnc(Nc3ccc4ncccc4c3F)c12` (relative stereo), for which the IC50 (in assay [1]; on EGFR L858R; at EGFR (d746-750)) was under 10 nM each time.

For `C[C@@H](Oc1cc(-c2cnn(C)c2)cc2ncnc(Nc3ccc4ncccc4c3F)c12)C1CCOC1` (single isomer, unassigned), the IC50 (in assay [1]; on EGFR L858R; at EGFR (d746-750)) was under 10 nM in each case.
